Reference: paper PMC12216609, “Inhibitors of eIF1A-ribosome interaction unveil uORF-dependent regulation of translation initiation and antitumor and antiviral effects” (The EMBO Journal, 2025)
“And” between values parts separate entries of the source, which are not always exact repeats. Identical values can stand only once. Like-named read-outs stand apart in the source and are kept apart here.

Amino acid sequences for entries named in this document (tags omitted).
UniProt P47813, whole entry: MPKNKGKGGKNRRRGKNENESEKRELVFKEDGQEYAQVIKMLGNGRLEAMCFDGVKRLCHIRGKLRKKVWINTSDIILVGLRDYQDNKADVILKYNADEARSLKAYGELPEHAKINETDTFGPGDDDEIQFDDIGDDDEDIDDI

Legend:
[1] = tested on: CUG/GUG vs AUG start codon luciferase reporters in HEK293T cells; assay: Near-cognate AUG starting codon fidelity reporter assay (GUG, CUG vs AUG); assay type: cell-based
[2] = tested on: IRF7 5'UTR firefly luciferase reporter in HEK293T cells;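 further: luciferase signal corrected by a co-transfected GFP reporter for transfection efficiency, read after overnight compound exposure, with Long and Short reporters differing in 5'UTR length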
eIF1A = eIF1A (Homo sapiens, UniProt P47813)
[3] = biological target: eIF1A-RPS10 interaction in HEK293T cells (Homo sapiens, UniProt P46783+P47813); assay: Proximity ligation assay (PLA); assay type: cell-based; conditions: 3 h
[4] = tested on: luciferase reporter mRNA in HEK293T cells; assay: Reporter gene mRNA levels by qPCR after 1Ais treatment; assay type: cell-based; conditions: five reporter genes
[5] = tested on: uORF-bearing 5'UTR firefly reporters in HEK293T cells; assay: uORF reinitiation / leaky scanning firefly reporters
eIF1A-RPS10 interaction = eIF1A-RPS10 interaction (Homo sapiens, UniProt P46783+P47813); assay: Split-Renilla luciferase eIF1A-RPS10 interaction screen, dose-response; assay type: biochemical; conditions: read-out: IC50 concentration (µM), IC50 screen; summary table
RPS10 = RPS10 (Homo sapiens, UniProt P46783)

In the case of COc1cc2nccc(Oc3ccc(NC(=O)Nc4cc(C)on4)c(Cl)c3)c2cc1OC, the “near-cognate start codon translation” value [1] is reported as “increased translation from near-cognate AUG starting codons”, the “CUG vs AUG (%)” value ([1]; CUG start codon reporter relative to AUG reporter (AUG = 100), compound at 20uM (summary head), single-experiment calculation) is reported as 7.488% and the “GUG vs AUG (%)” value ([1]; GUG start codon reporter relative to AUG reporter (AUG = 100), compound at 20uM (summary head), single-experiment calculation) is reported as 2.5747%. The “average CUG and GUG” value ([1]; NUG experiment) was 6.257, the “CUG Average” value ([1]; NUG experiment, CUG vs AUG reporter) was 9.333 and the “GUG Average” value ([1]; NUG experiment, GUG vs AUG reporter) was 3.18. The “NUG (Final data, Fig. 1E)” value ([1]; average CUG and GUG relative to DMSO, 20 µM overnight) was 1.387, the “GUG vs AUG data (%)” value ([1]; compound at 20uM, individual repeat, listed as 4927) was 4.37% and 2.52% and 2.65% and the “GUG vs AUG (%) Average” value ([1]; compound at 20uM, summary average of repeats, DMSO control average […]) was 3.18%. For the same compound, the “calculation: CUG (AUG = 100)” value ([1]; listed as 4927) was 9.358 and 9.014, the “calculation: GUG (AUG = 100)” value ([1]; listed as 4927) was 4.366 and 4.155 and the “IRF7 5'UTR reporter translation” value [2] was “selectively decreased translation from IRF7 5'UTR”. For the same compound, the “Reference vs IRF7 (Final data, Fig. 1E)” value ([2]; 1/Result, relative to DMSO, 20 µM) was 2.739, the “Long (Summary - top 3 1Ais), normalized to DMSO” value ([2]; Long reporter, 20 µM, individual replicates, DMSO = 1, listed as 4927) was 0.39 and 0.21 and 0.14 (2×) and the “LONG (summary - All), normalized to DMSO” value ([2]; Long reporter, 20 µM, individual replicates, outliers excluded, DMSO = 1, listed as 4927) was 0.39 and 0.21 and 0.14 (2×). For the same compound, the “SHORT (summary - All), normalized to DMSO” value ([2]; Short reporter, 20 µM, individual replicates, outliers excluded, DMSO = 1, listed as 4927) was 0.58 and 0.57 and 0.49, the “WT eIF1A IC50” value (eIF1A) was “No binding” and the “IC50 concentration (µM), WT eIF1A” value (eIF1A; summary table, fluorescence binding assay) was “No binding”. For the same compound, the “RPS10-eIF1A PLA interaction signal” value [3] was “reduced the interaction but to a lesser extent”, the “effect on reporter mRNA levels” value [4] was “did not exhibit any apparent effect on the mRNA levels” and the “effect on uORF / leaky scanning reporters” value ([5]; 20uM (1Ai-5175 at 5uM), overnight) was “no differential effects were observed”. For the same compound, the “normalized to DMSO, 46 leaky, average” value ([5]; 46 leaky reporter, average of biological repeats) was 0.645, the “averages of FF vs RL 2” value ([5]; 95nt experiment 240822, block FF-4927, reporter minus46, DMSO 0.736966) was 0.4915 and 0.5526 and 0.4683 and the “averages of FF vs RL 2” value ([5]; 95nt experiment 240822, block FF-4927, reporter minus 95, DMSO 0.940113) was 0.5271 and 0.5757 and 0.7211. The “averages of FF vs RL 2” value ([5]; 95nt experiment 240822, block FF-4927, reporter ref, DMSO 1.84824) was 1.232 and 1.092 and 1.217, the “averages of FF vs RL” value ([5]; 95nt experiment, block FF-1 (c104), reporter minus46, DMSO 0.0248618) was 0.02647 and the “FF vs RL” value ([5]; 95nt experiment, block FF-1 (c104), reporter minus 46, DMSO 2.74E-02, 2.23E-02) was 2.77E-02 and 2.53E-02. The “averages of FF vs RL” value ([5]; 95nt experiment, block FF-1 (c104), reporter minus 95, DMSO 0.0251627) was 0.01437, the “averages of FF vs RL” value ([5]; 95nt experiment, block FF-1 (c104), reporter ref, DMSO 0.0298915) was 0.03122 and the “FF vs RL” value ([5]; 95nt experiment, block FF-1 (c104), reporter reference, DMSO 2.79E-02, 3.19E-02) was 2.79E-02 and 3.45E-02. For the same compound, the “FF vs RL” value ([5]; 95nt experiment, block FF-1 (c131), reporter minus 46, DMSO 0.17626, 0.185518) was 0.07695 and 0.08587, the “averages of FF vs RL” value ([5]; 95nt experiment, block FF-1 (c131), reporter minus46, DMSO 0.180889) was 0.08141 and the “FF vs RL” value ([5]; 95nt experiment, block FF-1 (c131), reporter minus 46 plus 50, DMSO 0.437858, 0.481275) was 0.1444 and 0.1903. For the same compound, the “averages of FF vs RL” value ([5]; 95nt experiment, block FF-1 (c131), reporter minus 95, DMSO 0.459566) was 0.1674, the “averages of FF vs RL” value ([5]; 95nt experiment, block FF-1 (c131), reporter ref, DMSO 0.345569) was 0.1753 and the “FF vs RL” value ([5]; 95nt experiment, block FF-1 (c131), reporter reference, DMSO 0.39984, 0.291299) was 0.2058 and 0.1448. The “averages of FF vs RL 2” value ([5]; 95nt experiment, block FF-2 (c113), reporter minus46, DMSO 0.0506669) was 0.02855, the “FF vs RL 2” value ([5]; 95nt experiment, block FF-2 (c113), reporter minus 46, DMSO 3.43E-02, 5.07E-02) was 3.02E-02 and 2.69E-02 and the “FF vs RL 2” value ([5]; 95nt experiment, block FF-2 (c113), reporter minus 46 plus 50, DMSO 3.05E-02, 1.38E-02) was 2.74E-02 and 1.69E-02. The “averages of FF vs RL 2” value ([5]; 95nt experiment, block FF-2 (c113), reporter minus 95, DMSO 0.0221428) was 0.02213, the “averages of FF vs RL 2” value ([5]; 95nt experiment, block FF-2 (c113), reporter ref, DMSO 0.0383109) was 0.03757 and the “FF vs RL 2” value ([5]; 95nt experiment, block FF-2 (c113), reporter reference, DMSO 3.69E-02, 3.97E-02) was 3.81E-02 and 3.70E-02. For the same compound, the “normalized to DMSO, -46, average” value ([5]; -46 reporter, average of biological repeats) was 0.655, the “ff/rl, 46 leaky reporter” value ([5]; experiment 13.03.24, single replicates, not normalized to DMSO, listed as 4927) was 5.93E-02 and 2.78E-02 and 4.13E-02 and the “95nt from uORF to main ORF experiment, minus46, average (DMSO = 1)” value ([5]; minus46 reporter, average) was 0.6884. For the same compound, the “reporter activity norm to DMSO, minus 95” value ([5]; minus 95 (nt) reporter, 95nt from uORF to main ORF experiment, Figure 4N source data, replicate experiments, DMSO = 1) was 0.5607 and 0.9992, the “95nt from uORF to main ORF experiment, minus 95nt, average (DMSO = 1)” value ([5]; minus 95nt reporter, average) was 0.6458 and the “95nt from uORF to main ORF experiment, ref, average (DMSO = 1)” value ([5]; ref reporter, average) was 0.7413. For the same compound, the “normalized to DMSO, refference, average” value ([5]; refference reporter, average of biological repeats) was 0.742, the “normalized to DMSO, refference, biological repeats” value ([5]; refference reporter, biological repeats 1-4, listed as 4927) was 0.773 and 0.935 and 0.825 and the “normalize to DMSO, average” value ([5]; reporter 46, experiment 12.3.24, DMSO = 1) was 0.7887. For the same compound, the “normalize to DMSO, average” value ([5]; reporter 46, experiment 13.3.24, DMSO = 1) was 0.5542, the “normalize to DMSO, average” value ([5]; reporter 46 leaky, experiment 12.3.24, DMSO = 1) was 0.7519 and the “normalize to DMSO, average” value ([5]; reporter 46 leaky, experiment 13.3.24, DMSO = 1) was 0.5035. For the same compound, the “normalized to DMSO, single replicates” value ([5]; reporter 46 leaky, experiment 13.3.24, listed as 4927) was 6.97E-01 and 3.27E-01 and 4.86E-01, the “normalized to DMSO, single replicates” value ([5]; reporter normal (refference), experiment 13.3.24, listed as 4927) was 6.73E-01 and 9.77E-01 and the “normalize to DMSO, average” value ([5]; reporter refference, experiment 12.3.24, DMSO = 1) was 0.8543. The IC50 (eIF1A-RPS10 interaction) was 14 µM, the “binding of RPS10” value (RPS10) was “binds only RPS10” and the “binding to native and denatured Rps10” value (RPS10; 4M Urea) was “binding was detected with the native but not denatured Rps10”. It also gave an IC50 (RPS10; read-out: IC50 (line under RPS10 binding data)) of 6.1 µM, an IC50 (RPS10; read-out: IC50 concentration (µM), RPS10, summary table, fluorescence binding assay) of 6.1 µM and an IC50 (RPS10; read-out: RPS10 IC50) of 6.1 µM.
